Data as given in US20090304803A1, “Compositions and methods relating to target-specific photodynamic therapy” (The General Hospital Corporation, priority 2005, published 2009).

System: ovarian cancer cells
Assay: PCNA staining of tumor samples after EGFR-targeted PDT
Assay type: in vivo, mice
Conditions: combination with photodynamic therapy, pelvis and mesentery, seventy-two hours after second PDT treatment
Description: FIGS. 9A1-9B2 are photomicrographs showing the PCNA staining pattern of tumor samples from mice injected with ovarian cancer cells.
Organs from OVCA animal models are analyzed histopathologically using Proliferating Cell Nuclear Antigen (PCNA) staining.

## C225: agent combined with photodynamic therapy for EGFR-targeted PDT
  cell proliferation (PCNA staining): cell proliferation is reduced
